Screening data: PubChem, National Center for Advancing Translational Sciences (NCATS)
This is a sample that favours compounds with a hit; in the whole collection about 2.5% have one here.
ClpP mod: qHTS Assay for Activators of ClpP. ATP-dependent Clp protease proteolytic subunit (Bacillus subtilis (strain 168)), P80244. purified B. subtilis ClpP, FRET peptide cleavage, 20 min. Potency, µM (highest dose often 57.5 µM), inactives show top-dose activity change, negative = active. actives 1.9% (n = 340,000). AID 651965, 2013; active = well fitted falling curve with a large enough effect; inconclusive = small, poorly fitted or top-dose-only effect; inactive = no such curve, though single readings can be large or run the other way; note: potency is the fitted concentration of half-maximal effect; the source files actives as falling curves though it sought activators and does not explain the sign; nearly all actives have a fitted effect of over 65% in size
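Buffer: 100 mM Tris/HCl pH8, 100 mM KCl, 0.05% low protease BSA, 2.5% glycerol, 0.01% Tween-20. ClpP 10 microg/mL final; 20 min RT; delta FRET normalized to ADEP and DMSO controls.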
miR-21 reporter: miR-21 reporter, rising signal; HeLa miR-21 FLuc reporter, luciferase, 48 h; Potency, µM (top dose mostly 38.3 µM), without a hit: at the highest dose reporter change, positive = more light; 340,000 tested, under 10 active; active = well fitted rising curve with a large enough effect; inconclusive = small, poorly fitted or top-dose-only effect; inactive = no such curve, though single readings can be large or run the other way;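 further: % of control where 0% means no effect; miR-21 action dims this reporter so a rising signal means less miR-21 action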
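HeLa cells stably expressing CMV-driven firefly luciferase with a downstream miR-21 binding sequence, endogenously expressing miR-21, were treated with titrations (up to about 40uM final) for 48 hours at 37 degree Celsius. Luciferase luminescence was read after lysis.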
TrxR1 inh: inhibitors of rat thioredoxin reductase 1. O89049. recombinant rTrxR1, NADPH fluorescence consumption, selenite substrate. Potency, µM (top dose mostly 114 µM), without a hit: at the highest dose activity change, negative = inhibition, most hits filed as inhibitors. actives 1% (n = 390,000). AID 588453; note: potency is the fitted concentration of half-maximal effect; % is set by controls: 0 for no effect and ±100 for the full control effect; nearly all actives have a fitted effect of over 65% in size
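Rat TrxR1 (90 nM in the dispensed reagent) was pre-reduced with 400 uM NADPH for 5 min at room temperature, then incubated with compound for 15 min. After 400 uM selenite was added, NADPH fluorescence (Ex 340/Em 450 nm) was followed for 8 min.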
Anesthetic bind: candidate novel general anesthetic via apoferritin binding; P02791; apoferritin/1-aminoanthracene competitive binding, fluorescence; Potency, µM (titrated, usually from 77.5 µM), for inactives: at the top dose activity change, negative = displacement, usual class: inhibitors; actives 0.074% (n = 350,000); AID 485281; note: potency is the fitted concentration of half-maximal effect; % is set by controls: 0 for no effect and ±100 for the full control effect; nearly all actives have a fitted effect of over 20% in size
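10 uM apoferritin + 50% sat. 1-AMA, PBS; cpd 10 min RT; Ex380/Em535 endpoint; normalized to free probe vs complex; 4-param Hill fit; propofol titration as pos. ctrl.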
TrxR1 substrate: rat thioredoxin reductase 1 substrate activity. actives 0.01% (n = 390,000). purified TrxR1 substrate turnover, NADPH consumption readout. Potency, µM (highest dose often 114 µM), inactives show at the top dose activity change, negative = substrate turnover. AID 588456; note: potency is the fitted concentration of half-maximal effect; % is set by controls: 0 for no effect and ±100 for the full control effect; nearly all actives have a fitted effect of over 50% in size
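Rat TrxR1, dispensed at 90 nM, was prereduced with 400 uM NADPH (final) for 5 min at ~22 deg C, then incubated with compound 15 min before 400 uM selenite. A first-read NADPH fluorescence drop versus no-compound background flagged substrates.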
* hit, by the source's call; ? = inconclusive; . = not tested or not shown; [ ] = another dose, or the depositor's remark. Unless noted, calls come from the whole dose curve; as a rule, active = well fitted curve in the direction sought with a large enough effect; inconclusive = small, poorly fitted or top-dose-only effect, or another doubt; inactive = no such curve, though single readings can be large; an effect the other way counts as inactive or inconclusive.

Sequences of proteins named here, by UniProt entry; tags and fusion partners are left off.
ATP-dependent Clp protease proteolytic subunit (Bacillus subtilis (strain 168)), P80244, UniProt P80244, whole entry, looked up: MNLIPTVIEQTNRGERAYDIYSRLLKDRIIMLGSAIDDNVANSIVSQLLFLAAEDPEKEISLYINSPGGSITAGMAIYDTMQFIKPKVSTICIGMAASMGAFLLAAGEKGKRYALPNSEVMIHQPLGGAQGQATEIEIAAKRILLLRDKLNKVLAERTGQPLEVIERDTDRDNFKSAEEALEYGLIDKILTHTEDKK

Letters: A = ClpP mod; B = miR-21 reporter; C = TrxR1 inh; D = Anesthetic bind; E = TrxR1 substrate
Compound: CCc1cccc(NC(=O)Cn2cc(C(=O)c3ccncc3)c(=O)c3cc(C)c(C)cc32)c1
  A: -21.5%	B: -0.9%	C: -2.7%[57.1 µM]	D: 31.9%	E: -9.1%[57.1 µM]

Compound: O=C(/C=C/c1ccco1)N1CCN(S(=O)(=O)c2cccc([N+](=O)[O-])c2)CC1
  A: -10.7%	B: .	C: -29.4%	D: .	E: -3.6%

Compound: COc1ccc(S(=O)(=O)N2CCN(C(=O)/C=C/c3ccco3)CC2)cc1
  A: .	B: .	C: 12.6µM*	D: .	E: -1.6%

Compound: O=C(/C=C/c1ccco1)N1CCN(c2ncccn2)CC1
  A: -2.4%	B: -42.8%	C: 39.8µM*	D: 0.1%	E: -9.1%

Compound: Cc1ccc(C(=O)N2CCN(Cc3ccccc3)CC2)o1
  A: -0.4%	B: -5.9%	C: 10.9%	D: -3.6%	E: 8.3%

Compound: Cc1ccc(/C=C/C(=O)N2CCN(S(=O)(=O)c3ccc(C)c(C)c3)CC2)o1
  A: -1.1%	B: -3.0%	C: 17.8µM*	D: -8.8%	E: -2.7%

Compound: Cc1ccc(/C=C/C(=O)N2CCN(Cc3ccccc3)CC2)o1
  A: 0.7%	B: -17.8%	C: 44.7µM*	D: -6.7%	E: -9.2%

Compound: CC12CCC=CC1C(c1ccoc1)N(Cc1ccccc1)C2=O (configuration not stated)
  A: .	B: .	C: -23.1%	D: -18.1%	E: 0.0%

Compound: Cc1cc(C)cc(C(=O)N2CC(=O)Nc3ccccc32)c1
  A: -13.2%	B: 21.2%	C: -4.8%	D: ?	E: -2.1%

Compound: Cc1ccc(/C=C/C(=O)N2CC(=O)Nc3ccccc32)o1
  A: .	B: 1.0%	C: 79.4µM*	D: -6.3%	E: -9.9%

Compound: NS(=O)(=O)c1cccc(NC(=O)COC(=O)CCSc2ccccc2)c1
  A: 15.8µM*	B: -7.7%	C: 16.2%[57.1 µM]	D: ?	E: 4.3%[57.1 µM]

Compound: CC(NC(=O)c1cccc(S(=O)(=O)N2CCN(Cc3ccccc3)CC2)c1)c1ccccc1Cl (configuration not stated)
  A: -1.3%	B: .	C: 12.2%	D: .	E: -9.0%

Compound: CC(NC(=O)c1cccc(S(=O)(=O)N2CCN(Cc3ccccc3)CC2)c1)c1ccc(Br)cc1 (configuration not stated)
  A: 25.1µM*	B: 9.4%	C: -5.1%	D: 1.0%	E: -11.2%

Compound: O=C(NCCN1CCOCC1)c1c[nH]c2ccc(S(=O)(=O)N3CCOCC3)cc2c1=O
  A: 31.6µM*	B: -1.7%	C: -7.9%	D: -4.3%	E: 13.8%

Compound: O=C(NCc1ccco1)c1c[nH]c2ccc(S(=O)(=O)N3CCOCC3)cc2c1=O
  A: 31.6µM*	B: -1.6%	C: -19.6%	D: -0.5%	E: 12.5%

Compound: COCCCNC(=O)c1c[nH]c2ccc(S(=O)(=O)N3CCC4(CC3)OCCO4)cc2c1=O
  A: .	B: 0.2%	C: 17.6%[57.1 µM]	D: -4.0%	E: 10.0%[57.1 µM]

Compound: CCCCCNC(=O)c1c[nH]c2ccc(S(=O)(=O)N3CCC4(CC3)OCCO4)cc2c1=O
  A: 15.8µM*	B: -3.5%	C: 10.7%	D: -9.8%	E: -10.7%

Compound: CCCn1cc(S(=O)(=O)c2ccc(CC)cc2)c(=O)c2ccccc21
  A: -4.0%	B: -12.3%	C: 9.5%	D: -1.2%	E: -3.4%

Compound: COC1CCN(C(=O)c2ccc3oc(Cc4ccc(Cl)cc4)nc3c2)CC1
  A: -0.9%	B: -3.1%	C: 14.6%	D: -4.0%	E: -6.8%

Compound: Nc1ccc2oc(Cc3ccc(Cl)cc3)nc2c1
  A: -2.2%	B: -3.0%	C: 50.1µM*	D: -5.0%	E: 1.3%

Compound: CCOc1ccccc1NC(=O)C1CCN(S(=O)(=O)c2ccc3c(c2)CCCN3C(C)=O)CC1
  A: 0.8%	B: -0.3%	C: -4.9%[57.1 µM]	D: -3.6%	E: -6.9%[57.1 µM]

Compound: C(=C\n1nnc2ccccc21)/c1ccc[nH]1
  A: -1.6%	B: .	C: 12.6µM*	D: .	E: 1.8%

Compound: c1ccc(-n2nnc3ccccc32)cc1
  A: 1.1%	B: -11.5%	C: 6.1%	D: -20.2%	E: 1.0%

Compound: COc1ccccc1N=Cc1nc(-c2ccccc2)oc1OC(C)=O
  A: -4.0%	B: -9.3%	C: -35.4%[57.1 µM]	D: 3.9%	E: -8.1%[57.1 µM]

Compound: CC(=O)Oc1oc(-c2ccccc2)nc1/C=N/c1ccccn1
  A: -3.9%	B: -43.0%	C: 7.08µM*	D: -7.4%	E: -2.5%

Compound: COc1ccc(N2CCN(C(c3ccccc3)c3sc4nc(-c5ccco5)nn4c3O)CC2)cc1 (configuration not stated)
  A: 0.7%	B: 29.4%	C: 15.3%[57.1 µM]	D: ?	E: 1.1%[57.1 µM]

Compound: Cc1cccc(N=C/C(C(=O)C(F)(F)F)=C(\O)c2ccco2)c1
  A: -8.0%	B: -5.0%	C: -15.5%	D: 8.9%	E: -13.7%

Compound: Cc1ccc(N=C/C(C(=O)C(F)(F)F)=C(\O)c2ccco2)cc1Cl
  A: 15.8µM*	B: -53.3%	C: 14.3%	D: -22.1%	E: 7.4%

Compound: O=C(/C(C=Nc1ccc(F)cc1)=C(/O)c1ccco1)C(F)(F)F
  A: 25.1µM*	B: -74.0%	C: -8.0%	D: -10.7%	E: -13.1%

Compound: Cc1nn2c(N3CCN(c4ccccn4)CC3)cc(C(C)C)nc2c1-c1ccccc1
  A: 28.2µM*	B: -2.5%	C: 69.7%	D: 4.7%	E: 77.2%

Compound: O=C(Cn1c(SCCOc2ccc(Cl)cc2)nc2ccccc21)N1CCCCC1
  A: 1.1%	B: -3.3%	C: 3.9%	D: 3.5%	E: 1.6%

Compound: CC(C)(C)OC(=O)NCCc1nnc(S(=O)(=O)Cc2ccc(Cl)cc2Cl)o1
  A: -4.1%	B: ?	C: 0.398µM*	D: ?	E: 11.4%[57.1 µM]

Compound: CCc1cccc(NC(=O)CC(c2ccc(OC)cc2)N2Cc3ccccc3C2=O)c1 (configuration not stated)
  A: 0.0%	B: 5.3%	C: 20.8%	D: -19.3%	E: -7.0%

Compound: COc1cc(CNc2ccc(N3CCCC3)cc2)ccc1OCc1ccccc1
  A: -4.6%	B: -36.1%	C: ?	D: -6.2%	E: -7.5%

Compound: CCOc1cc(CNc2ccc(O)cc2)cc(Br)c1OCc1ccccc1F
  A: -2.2%	B: 20.9%	C: ?	D: -23.8%	E: -4.2%

Compound: COc1cc(CNc2ccc(N3CCCC3)cc2)ccc1OCc1ccccc1F
  A: -0.1%	B: -39.6%	C: 10µM*	D: -21.2%	E: -12.8%

Compound: COc1cc(CNc2ccc(O)cc2)cc(Br)c1OCc1ccccc1F
  A: -3.7%	B: -9.9%	C: 20µM*	D: -17.6%	E: -13.6%

Compound: CCc1nc2ccc(C(=O)NCc3ccc(N(C)C)cc3)cc2nc1CC
  A: -2.8%	B: 5.2%	C: -7.0%[57.1 µM]	D: 6.3%	E: -11.2%[57.1 µM]

Compound: O=C(Nc1ccc(Cl)c(S(=O)(=O)N2CCCCC2)c1)C1=COCCO1
  A: 14.1µM*	B: .	C: -11.4%	D: .	E: -11.0%

Compound: CC(=O)Oc1ccc2nonc2c1OC(C)=O
  A: 2.3%	B: .	C: ?	D: .	E: 20µM*

Three entries from above, with values under each structure.
Order of values: ClpP mod, miR-21 reporter, TrxR1 inh, Anesthetic bind, TrxR1 substrate
CCc1nc2ccc(C(=O)NCc3ccc(N(C)C)cc3)cc2nc1CC
 : -2.8%, 5.2%, -7.0%[57.1 µM], 6.3%, -11.2%[57.1 µM]
O=C(Nc1ccc(Cl)c(S(=O)(=O)N2CCCCC2)c1)C1=COCCO1
 : 14.1µM*, ., -11.4%, ., -11.0%
CC(=O)Oc1ccc2nonc2c1OC(C)=O
 : 2.3%, ., ?, ., 20µM*

New compounds follow:
Letters: A = ClpP mod; B = miR-21 reporter; C = TrxR1 inh; D = Anesthetic bind; E = TrxR1 substrate
Compound: CC(=O)Nc1cc(OC(C)=O)c2nonc2c1OC(C)=O
  A: 1.8%	B: ?	C: 130.7%[57.1 µM]	D: -11.8%	E: ?

Compound: Cn1cnnc1Sc1ccc(C(=O)OCC(=O)Nc2ccccc2)cc1[N+](=O)[O-]
  A: 1.1%	B: -9.1%	C: ?	D: 1.8%	E: -8.9%

Compound: Cn1cnnc1Sc1ccc(/C=C/C(=O)c2ccc(O)cc2)cc1[N+](=O)[O-]
  A: -0.2%	B: 5.8%	C: 22.4µM*	D: -11.1%	E: -15.3%

Compound: COc1ccc(NC(=O)/C(C#N)=C/c2ccc(Sc3nncn3C)c([N+](=O)[O-])c2)cc1
  A: .	B: 4.5%	C: 50.1µM*	D: -21.3%	E: 6.5%

Compound: CCOC(=O)c1ccc(NC(=O)CC2C(=O)N(c3ccccc3)C(=O)N2C2CCCCC2)cc1 (configuration not stated)
  A: 0.8%	B: 7.4%	C: 13.9%	D: -15.2%	E: -8.2%

Compound: N#Cc1c(N2CCN(C(=O)c3ccccc3Cl)CC2)nc(-c2ccccc2)c2c1CCCC2
  A: 4.9%	B: 3.9%	C: 61.7%	D: 204.7%	E: 130.5%

Compound: N#Cc1c(N2CCCCC2)nc(N2CCCCC2)c2c1CCN(Cc1ccccc1)C2
  A: 11.2µM*	B: 13.7%	C: 24.2%[57.1 µM]	D: 1.3%	E: 19.1%[57.1 µM]
